Results: patent US6770748B2, “Bicyclonucleoside and oligonucleotide analogue” (priority 1997, dated 2004)

Protein sequences, listed by entry. Tags and fused reporters are not part of them. Residues count along the entry.
UniProt J3SEZ3, 24-851 limits assumed: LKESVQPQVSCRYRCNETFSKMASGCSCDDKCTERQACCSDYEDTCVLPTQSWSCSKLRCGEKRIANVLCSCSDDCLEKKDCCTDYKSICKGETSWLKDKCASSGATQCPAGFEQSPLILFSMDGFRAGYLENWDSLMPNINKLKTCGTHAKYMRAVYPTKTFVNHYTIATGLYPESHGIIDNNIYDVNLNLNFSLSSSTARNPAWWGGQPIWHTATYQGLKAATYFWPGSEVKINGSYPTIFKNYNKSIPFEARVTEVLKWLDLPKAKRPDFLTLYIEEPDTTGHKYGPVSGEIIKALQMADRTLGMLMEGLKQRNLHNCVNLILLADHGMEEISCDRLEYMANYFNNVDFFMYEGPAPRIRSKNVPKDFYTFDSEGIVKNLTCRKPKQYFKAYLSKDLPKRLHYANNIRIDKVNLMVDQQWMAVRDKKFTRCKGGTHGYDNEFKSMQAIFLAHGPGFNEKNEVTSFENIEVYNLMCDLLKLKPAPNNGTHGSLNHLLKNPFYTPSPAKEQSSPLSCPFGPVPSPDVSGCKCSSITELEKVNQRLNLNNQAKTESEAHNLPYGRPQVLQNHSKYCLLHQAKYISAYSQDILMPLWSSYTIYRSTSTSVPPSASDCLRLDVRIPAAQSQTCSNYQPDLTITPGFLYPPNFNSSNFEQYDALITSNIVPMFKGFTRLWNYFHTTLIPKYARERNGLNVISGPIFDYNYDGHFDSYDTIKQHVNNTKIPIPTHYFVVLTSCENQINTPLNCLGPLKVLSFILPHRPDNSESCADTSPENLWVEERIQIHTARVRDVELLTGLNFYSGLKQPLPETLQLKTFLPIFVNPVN

Target: snake venom phosphodiesterase (Crotalus adamanteus, UniProt J3SEZ3)

5′-GTTTTTTTTTXXC-3′ [Compound X2]
time until ultraviolet absorption reached a plateau after initiation of the enzyme reaction: about 90 minutes
t½ (half-life) (pH 8.6): 14.2 min
